According to publication doi:10.1101/2023.02.03.527073v1 (biorxiv, 2023):

Assays:
Assay in all cases: HTRF competition with biotinylated H4ac4 peptide
Type in all cases: binding
CgBdf1 BD1 (CgBD1) = CgBdf1 BD1 (CgBD1) (Nakaseomyces glabratus, UniProt Q6FWV7); settings: 5 nM GST-BD, 30 nM biotinylated H4ac4, pH 7.5, 4 °C, 4 h
[1] = target: human Brd4 BD2 (hBrd4 BD2) (Homo sapiens, UniProt O60885); settings: 5 nM GST-BD, 600 nM biotinylated H4ac4, pH 7.5, 4 °C, 24 h
CgBdf1 BD2 (CgBD2) = CgBdf1 BD2 (CgBD2) (Nakaseomyces glabratus, UniProt Q6FWV7); settings: 5 nM GST-BD, 250 nM biotinylated H4ac4, pH 7.5, 4 °C, 24 h
[2] = target: human Brd4 BD1 (hBrd4 BD1) (Homo sapiens, UniProt O60885); settings: 5 nM GST-BD, 50 nM biotinylated H4ac4, pH 7.5, 4 °C, 4 h

| IC50 (CgBdf1 BD1 (CgBD1); single replicate) [µM] | IC50 (CgBdf1 BD2 (CgBD2); single replicate) [µM] | Structure (SMILES) | other results |
| --- | --- | --- | --- |
|  |  | CC(=O)Nc1ccc(CCc2nc3ccc(C(=O)NCc4ccco4)cc3[nH]2)cc1 | IC50 (CgBdf1 BD1 (CgBD1); n=3): 2.84 µM; IC50 ([1]; n=3): > 20 µM; IC50 (CgBdf1 BD2 (CgBD2); n=3): > 20 µM; IC50 ([2]; n=3): > 20 µM |
| > 20 |  | CC(=O)Nc1ccc(CCc2nc3cc(C(=O)NC4CC4)ccc3[nH]2)cc1 |  |
|  | > 20 | COCCN1C(=O)c2ccccc2C(C(=O)Nc2cccc(NC(C)=O)c2)C12CCCCC2 (stereo not shown) |  |
| 5 | > 20 | COc1ccc(CNc2nc(-c3ccccc3)nnc2C)cc1 |  |
|  |  | COc1cc2nc(C(=O)N3CCCCC3)cc(Nc3ccc(Br)cc3)c2cc1OC | IC50 ([1]; n=3): > 20 µM; IC50 ([2]; n=3): > 20 µM |
|  | > 20 | CC(=O)Nc1ccc(C(=O)N2CCC3(CC2)NC(c2ccccc2)=NO3)cc1 | IC50 ([2]; single replicate): > 20 µM |
| > 20 |  | CC(=O)NCC(=O)N1CCC(c2cc(-c3ccc(F)cc3)n[nH]2)CC1 |  |
| 19 | 8.2 | CN(C)c1ccc(CNC(=O)c2cc3c(=O)n(C)ccc3n2C)cc1 | IC50 ([1]; single replicate): 2.7 µM |
